Source: patent US12528818B2, “Compositions and methods for inhibition of RAS” (Leidos Biomedical Research, Inc., priority 2021, dated 2026)

Legend:
[1] = biological target: Avi-KRAS G12C (1-169) GppNHp/RAF1 RBD-3xFLAG (52-151) (Homo sapiens, UniProt P01116, G12C); assay: biochemical; conditions: Raf1-GppNHp-KRAS G12C disruption, Raf1 RBD-KRAS G12C-GppNHp disruption assay IC50
[2] = biological target: GppNHp-loaded KRAS4b (amino acids 1-169) G12C/C118S protein (Homo sapiens, UniProt P01116, C118S/G12C); assay: Covalent cysteine 12 modification by MALDI-TOF MS, GppNHp-loaded KRAS G12C; type: biochemical; conditions: 15 minutes reaction time, compound 95 or later using 1 μM proteins
[3] = biological target: GDP-loaded KRAS4b (amino acids 1-169) G12C/C118S protein (Homo sapiens, UniProt P01116, C118S/G12C); assay: Covalent cysteine 12 modification by MALDI-TOF MS, GDP-loaded KRAS G12C; type: biochemical; conditions: 15 minutes reaction time, compound 95 or later using 1 μM proteins
[4] = biological target: T1, GTP-loaded KRAS4b (amino acids 1-169) G12C/C118S protein (Homo sapiens, UniProt P01116, C118S/G12C); assay: Covalent cysteine 12 modification by MALDI-TOF MS, GTP-loaded KRAS G12C; type: biochemical; conditions: 15 minutes reaction time, compound 95 or later using 1 μM proteins
T1 construct: KRAS4b (amino acids 1-169) G12C/C118S protein; made in house

| IC50 [1] | GppNHp-KRAS G12C percent of modification [2] | GDP-KRAS G12C percent of modification [3] | GTP-KRAS G12C percent of modification [4] | SMILES |
| --- | --- | --- | --- | --- |
| < 500 nM | – | B (50≤percent of modification <70%) | C (10%≤percent of modification <50%) | C=CC(=O)N1C[C@H](C)N(c2nc(OC[C@@]34CCCN3C[C@H](F)C4)nc3c(F)c(-c4ccc(F)c5sc(N)c(C#N)c45)c(C(F)(F)F)cc23)C[C@@H]1C [Compound 349] |
| < 500 nM | A (percent of modification ≥70%) | A (percent of modification ≥70%) | C (10%≤percent of modification <50%) | C=CC(=O)N1CCC(N(C)c2nc(OC[C@@]34CCCN3C[C@H](OC)C4)nc3c(F)c(-c4ccc(F)c5sc(N)c(C#N)c45)c(Cl)cc23)[C@H]1C (stereo partly shown) [Compound 474] |
| < 500 nM | A (percent of modification ≥70%) | A (percent of modification ≥70%) | B (50≤percent of modification <70%) | C=CC(=O)N1CCN(c2nc(OC[C@@]34CCCN3C[C@H](F)C4)nc3c(F)c(-c4ccc(F)c5sc(N)c(C#N)c45)c(C(F)(F)F)cc23)C[C@@H]1C [Compound 329] |
| 500 to 5000 nM | D (percent of modification <10%) | B (50≤percent of modification <70%) | D (percent of modification <10%) | C=CC(=O)N1CCC(N(C)c2nc(OC[C@@H]3C[C@@H](F)CN3C)nc3c(F)c(-c4ccc(F)c5sc(N)c(C#N)c45)c(Cl)cc23)[C@H]1C (stereo partly shown) [Compound 449] |
| < 500 nM | B (50≤percent of modification <70%) | A (percent of modification ≥70%) | C (10%≤percent of modification <50%) | C=CC(=O)N1CCC(N(CC)c2nc(OC[C@@H]3CC4(CC4)CN3C)nc3c(F)c(-c4ccc(F)c5sc(N)c(C#N)c45)c(C(F)(F)F)cc23)[C@H]1C (stereo partly shown) [Compound 405] |
| < 500 nM | – | A (percent of modification ≥70%) | A (percent of modification ≥70%) | C=CC(=O)N1CCC(N(C)c2nc(OC[C@@H]3C[C@@H](OC)CN3C)nc3c(F)c(-c4ccc(F)c5sc(N)c(C#N)c45)c(Cl)cc23)[C@H]1C (stereo partly shown) [Compound 450] |
| < 500 nM | – | A (percent of modification ≥70%) | A (percent of modification ≥70%) | C=CC(=O)N1CCC(N(CC)c2nc(OC[C@@]34CCCN3C[C@H](F)C4)nc3c(F)c(-c4ccc(F)c5sc(N)c(C#N)c45)ccc23)[C@H]1C (stereo partly shown) [Compound 421] |
| < 500 nM | – | A (percent of modification ≥70%) | A (percent of modification ≥70%) | C=CC(=O)N1CCC(N(C)c2nc(OC[C@@H]3CCCN3C)nc3c(F)c(-c4ccc(F)c5sc(N)c(C#N)c45)c(C(F)(F)F)cc23)[C@H]1C (stereo partly shown) [Compound 400] |
| < 500 nM | – | A (percent of modification ≥70%) | A (percent of modification ≥70%) | C=CC(=O)N1CC[C@@H](N(C)c2nc(OC[C@@]34CCCN3C[C@H](F)C4)nc3c(F)c(-c4ccc(F)c5sc(N)c(C#N)c45)c(Cl)cc23)[C@H]1C [Compound 395, 4-(4-((1-acryloyl-2-methylpyrrolidin-3-yl)(methyl)amino)-6-chloro-8-fluoro-2-(((2R,7aS)-2-fluorotetrahydro-1H-pyrrolizin-7a(5H)-yl)methoxy)quinazolin-7-yl)-2-amino-7-fluorobenzo[b]thiophene-3-carbonitrile] |
| < 500 nM | – | A (percent of modification ≥70%) | A (percent of modification ≥70%) | C=CC(=O)N1CC[C@@H](N(C)c2nc(OC[C@@]34CCCN3C[C@H](F)C4)nc3c(F)c(-c4ccc(F)c5sc(N)c(C#N)c45)ccc23)[C@H]1C [Compound 358, 4-(4-(((2R,3R)-1-acryloyl-2-methylpyrrolidin-3-yl)(methyl)amino)-8-fluoro-2-(((2R,7aS)-2-fluorotetrahydro-1H-pyrrolizin-7a(5H)-yl)methoxy)quinazolin-7-yl)-2-amino-7-fluorobenzo[b]thiophene-3-carbonitrile] |
| < 500 nM | – | B (50≤percent of modification <70%) | B (50≤percent of modification <70%) | C=CC(=O)N1CCC(N(C)c2nc(OC[C@@H]3C[C@@H](F)CN3C)nc3c(F)c(-c4ccc(F)c5sc(N)c(C#N)c45)c(C(F)(F)F)cc23)[C@H]1C (stereo partly shown) [Compound 399] |

The next lines start with the compound.

| SMILES | IC50 [1] | GppNHp-KRAS G12C percent of modification [2] | GDP-KRAS G12C percent of modification [3] | GTP-KRAS G12C percent of modification [4] |
| --- | --- | --- | --- | --- |
| C=CC(=O)N1C[C@H](C)N(c2nc(OC[C@@]34CCCN3C[C@H](F)C4)nc3cc(-c4ccc(F)c5sc(N)c(C#N)c45)c(C(F)(F)F)cc23)C[C@H]1C [Compound 304] | < 500 nM | A (percent of modification ≥70%) | A (percent of modification ≥70%) | C (10%≤percent of modification <50%) |
| C=CC(=O)N1C[C@@H](F)[C@@H](N(C)c2nc(OC[C@@]34CCCN3C[C@H](F)C4)nc3c(F)c(-c4ccc(F)c5sc(N)nc45)c(C(F)(F)F)cc23)C1 [Compound 279] | < 500 nM | A (percent of modification ≥70%) | A (percent of modification ≥70%) | A (percent of modification ≥70%) |
| C=CC(=O)N1C[C@H](C)N(c2nc(OC[C@@]34CCCN3C[C@H](OC)C4)nc3c(F)c(-c4ccc(F)c5sc(N)c(C#N)c45)c(Cl)cc23)C[C@H]1C [Compound 367] | < 500 nM | A (percent of modification ≥70%) | A (percent of modification ≥70%) | B (50≤percent of modification <70%) |
| C=CC(=O)N1C[C@H](C)N(c2nc(OC[C@@]34CCCN3C[C@H](F)C4)nc3c(Cl)c(-c4ccc(F)c5sc(N)nc45)c(C(F)(F)F)cc23)C[C@H]1C [Compound 295, 1-((2R,5S)-4-(7-(2-amino-7-fluorobenzo[d]thiazol-4-yl)-8-chloro-2-(((2R,7aS)-2-fluorotetrahydro-1H-pyrrolizin-7a(5H)-yl)methoxy)-6-(trifluoromethyl)quinazolin-4-yl)-2,5-dimethylpiperazin-1-yl)prop-2-en-1-one] | < 500 nM | C (10%≤percent of modification <50%) | B (50≤percent of modification <70%) | D (percent of modification <10%) |
| C=CC(=O)N1[C@@H](C)CN(c2nc(OC[C@@]34CCCN3C[C@H](OC)C4)nc3c(F)c(-c4ccc(F)c5sc(N)c(C#N)c45)c(C(F)(F)F)cc23)C[C@@H]1C (atropisomer, axis not shown) [Compound 364] | < 500 nM | A (percent of modification ≥70%) | A (percent of modification ≥70%) | C (10%≤percent of modification <50%) |
| C=CC(=O)N1CCC(N(C)c2nc(OC[C@@]34CCCN3C[C@H](F)C4)nc3c(Cl)c(-c4ccc(F)c5sc(N)c(C#N)c45)c(C#N)cc23)[C@H]1C (stereo partly shown) [Compound 425] | 500 to 5000 nM | D (percent of modification <10%) | C (10%≤percent of modification <50%) | D (percent of modification <10%) |
| C=CC(=O)N1C[C@@H](F)[C@@H](N(C)c2nc(OC[C@@]34CCCN3C[C@H](F)C4)nc3c(F)c(-c4ccc(F)c5sc(N)c(C#N)c45)c(Cl)cc23)C1 [Compound 365] | < 500 nM | A (percent of modification ≥70%) | A (percent of modification ≥70%) | B (50≤percent of modification <70%) |
| C=CC(=O)N1CCC(N(CC)c2nc(OC[C@@]34CCCN3C[C@H](F)C4)nc3c(F)c(-c4ccc(F)c5sc(N)c(C#N)c45)ccc23)[C@H]1COC (stereo partly shown) [Compound 412] | < 500 nM | A (percent of modification ≥70%) | A (percent of modification ≥70%) | A (percent of modification ≥70%) |
| C=CC(=O)N1CC[C@@H](N(C)c2nc(OC[C@@]34CCCN3C[C@H](F)C4)nc3c(F)c(-c4ccc(F)c5sc(N)c(C#N)c45)c(F)cc23)C1 [Compound 343] | < 500 nM | C (10%≤percent of modification <50%) | C (10%≤percent of modification <50%) | C (10%≤percent of modification <50%) |
